Protein sequences, listed by entry. Tags and fused reporters are not part of them. Residues count along the entry.
UniProt P27352, 19-417: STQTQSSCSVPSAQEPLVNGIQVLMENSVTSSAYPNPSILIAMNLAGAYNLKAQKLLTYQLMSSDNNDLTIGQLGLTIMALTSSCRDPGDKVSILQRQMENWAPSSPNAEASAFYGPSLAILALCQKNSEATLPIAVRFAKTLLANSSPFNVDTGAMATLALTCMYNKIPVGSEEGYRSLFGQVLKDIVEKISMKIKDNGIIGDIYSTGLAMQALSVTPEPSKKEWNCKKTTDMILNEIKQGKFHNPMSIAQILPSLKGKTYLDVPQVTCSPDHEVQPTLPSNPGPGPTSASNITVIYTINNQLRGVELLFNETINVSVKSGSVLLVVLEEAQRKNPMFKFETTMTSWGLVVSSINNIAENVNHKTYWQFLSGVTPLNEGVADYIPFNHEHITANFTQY

According to patent publication US10716827B2 (priority 2015, dated 2020):

Tests used:
[1] = background statement; cited from earlier work
Intrinsic Factor (IF) [2] = target: T1, Intrinsic Factor (IF) (Homo sapiens, UniProt P27352); settings: read-out: Kd, IF binds B12; background statement; cited from earlier work
Intrinsic Factor (IF) [3] = target: T1, Intrinsic Factor (IF); settings: read-out: IF binding; radiometric chase assay, 57Co-labelled B12; IF produced in Arabidopsis, apo-form

Substance	half-life [1]	Kd (Intrinsic Factor (IF) [2])	Kd (Intrinsic Factor (IF) [3])
GLP-1	< 2 min	–	–
cyanocobalamin [B12]	–	~1 pM	120 pM

Like-named read-outs stand apart in the source and are kept apart here.
